In PMC6839854, “Inactive USP14 and inactive UCHL5 cause accumulation of distinct ubiquitinated proteins in mammalian cells” (PLoS ONE, 2019) one finds IC50 data, which are given here for 1 molecule.

Sequences of proteins named here, by UniProt entry; tags and fusion partners are left off. A change or cut given only in a name is not applied to a line headed by its entry.
UniProt P54578: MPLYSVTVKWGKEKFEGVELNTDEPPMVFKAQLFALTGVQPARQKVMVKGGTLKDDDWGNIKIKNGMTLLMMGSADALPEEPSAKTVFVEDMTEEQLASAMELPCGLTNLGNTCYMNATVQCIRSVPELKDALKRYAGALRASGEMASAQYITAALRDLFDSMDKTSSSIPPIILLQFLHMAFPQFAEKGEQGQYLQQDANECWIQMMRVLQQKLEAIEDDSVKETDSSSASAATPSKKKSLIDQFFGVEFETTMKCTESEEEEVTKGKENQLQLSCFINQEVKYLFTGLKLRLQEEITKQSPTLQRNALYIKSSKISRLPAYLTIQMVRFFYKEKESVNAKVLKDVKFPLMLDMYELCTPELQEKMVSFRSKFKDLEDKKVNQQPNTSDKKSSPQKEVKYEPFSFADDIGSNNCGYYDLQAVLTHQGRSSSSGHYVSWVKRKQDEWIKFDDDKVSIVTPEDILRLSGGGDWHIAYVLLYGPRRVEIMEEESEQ

The structures appear in SMILES notation.

For the assay, the target named is T1, USP14 (Homo sapiens, UniProt P54578).
T1 construct: Full length USP14; with ubiquitin vinyl sulfone-treated 26S proteasome (26S-VS)
The experiment in a line: ubiquitin-rhodamine […] hydrolysis assay with purified USP14 and Ub-VS-treated […] proteasome. Format: biochemical.

For `Cc1cc(C(=O)CN2CCCC2)c(C)n1-c1ccc(F)cc1` [IU1], the IC50 – broadly, the concentration that inhibits the measured activity by half – is 5.51 µM.
